This experiment addresses stearoyl-CoA desaturase (SCD1) (Mus musculus, UniProt P13516). In words: Stearoyl-CoA desaturase inhibition, mouse liver microsomes (release of 3H2O from [9,10-3H]stearoyl-CoA). The conditions noted are these: read-out: Microsomal IC50, 15 min incubation, 25° C. The source says: The identification of compounds of the invention as SCD inhibitors was readily accomplished using the SCD enzyme and microsomal assay procedure described in Shanklin J. and Summerville C., Proc. Natl. Acad. Sci. USA (1991), Vol. 88, pp. 2510-2514.
Measuring Stearoyl-CoA Desaturase Inhibition Activity of a Test Compound Using Mouse Liver Microsomes
The identification of compounds of the invention as SCD inhibitors was readily accomplished using the SCD microsomal assay procedure described in Shanklin J. and Summerville C., Proc. Natl. Acad. Sci. USA (1991), Vol. 88, pp. 2510-2514.
Male ICR outbread mice, on a high-carbohydrate, low fat diet, under light halothane (15% in mineral oil) anesthesia are sacrificed by exsanguination during periods of high enzyme activity. Livers are immediately rinsed with cold 0.9% NaCl solution, weighed and minced with scissors. […] The absence of mitochondrial contamination is enzymatically assessed. The protein concentration is measured using bovine serum albumin as the standard.
Desaturase activity is measured as the release of ^3H2O from [9,10-^3H]stearoyl-CoA. […] The flow through containing the ^3H2O released by the SCD1 desaturation reaction is added to scintillation fluid and the radioactivity measured in a Packard TopCount. The data is analysed to identify the IC50 for test compounds and reference compounds. […]
(Microsomes from liver hold many membrane-bound enzymes, among them those of drug oxidation.)

Sequences of proteins named here, by UniProt entry; tags and fusion partners are left off.
UniProt P13516, whole entry: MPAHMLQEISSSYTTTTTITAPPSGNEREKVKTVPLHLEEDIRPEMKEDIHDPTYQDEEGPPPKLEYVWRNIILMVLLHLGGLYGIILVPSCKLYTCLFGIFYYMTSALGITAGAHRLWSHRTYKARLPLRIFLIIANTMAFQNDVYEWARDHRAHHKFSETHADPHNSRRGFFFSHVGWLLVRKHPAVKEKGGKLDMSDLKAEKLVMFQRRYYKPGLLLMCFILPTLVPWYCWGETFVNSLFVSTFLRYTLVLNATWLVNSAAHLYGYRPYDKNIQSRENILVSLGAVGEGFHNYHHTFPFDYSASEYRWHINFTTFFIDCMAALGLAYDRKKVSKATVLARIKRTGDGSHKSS

As usually defined, the IC50 is the concentration at which inhibition is half-maximal. `Cc1nc(-n2cnn(CC3CC3(F)F)c2=O)sc1C(=O)NCc1ccccn1` (centres unmarked): the IC50 was 88 nM. The value for `Cc1nc(-n2cnn(Cc3ccc(OC(F)(F)F)cc3)c2=O)sc1C(=O)NCc1cncs1` was 26 nM.
